Bioassay records from PubChem BioAssay.
This excerpt belongs to a sample that is enriched for hits.
GIV-Gai inh = inhibitors of GIV GBA-motif binding to rat Galpha-i3; P08753; Galpha-i3/FITC-GIV peptide fluorescence polarization, 90 min; active compounds read low; scaled: aluminum fluoride 0%, vehicle 100%; percent of control (FP), % (test concentration not listed); 210,000 tested, 0.42% active; AID 1224905;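 active = replicate mean at 85% of control or lower, very high polarization wells dropped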;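 note: lower values mean more displacement of the GIV peptide from Galpha-i3; wells of about 15 µL received 100 nL stock; the first replicate is given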
HCMV NEC inh = cytomegalovirus nuclear egress complex inhibition. HTRF UL50-UL53 interaction, normalized percent inhibition. inhibition, % (test concentration not listed). hit rate 0.15% among 190,000. AID 1918969; in the data active means inhibition above about 27%, passing the limit was not always enough
Of the large screens only hits and unclear results are named; the others gave an inactive call.

O=C(O)c1cccc2cccc(C(=O)O)c12	none
Nc1ccc(C(=O)O)c2c(C(=O)O)cccc12	GIV-Gai inh 72
O=C(O)CCC(=O)Nc1ccc(-c2nc3ccc(NC(=O)CCC(=O)O)cc3[nH]2)cc1	none
Cc1cc(=O)[nH]c(O)c1C(=O)O	HCMV NEC inh 65
Cc1cc(C)n(C)c(=O)c1C(=O)O	none (no result: HCMV NEC inh)
CN1c2ccsc2C(=O)CS1(=O)=O	none
N#CC1=C(N)SC(N)=C(C#N)C1CCC1CCCCC1	GIV-Gai inh -95
Nc1nnc(CCC2CCCCC2)s1	none
O=c1oc2c(CN3CCCCC3)c(O)ccc2cc1-c1nc2ccccc2s1	GIV-Gai inh -32
O=c1oc2ccccc2cc1-c1nc2ccccc2s1	none
O=c1oc2c(CN3CCOCC3)c(O)ccc2cc1-c1ccccc1	none (no result: HCMV NEC inh)
O=c1oc2c(CN3CCCCCC3)c(O)ccc2cc1-c1nc2ccccc2s1	GIV-Gai inh -32
O=c1oc2c(CN3CCN(CCO)CC3)c(O)ccc2cc1-c1nc2ccccc2s1	GIV-Gai inh -45
CC1CCN(Cc2c(O)ccc3cc(-c4nc5ccccc5s4)c(=O)oc23)CC1	GIV-Gai inh -32
COc1ccc(-c2cc3ccc(O)c(CN4CCN(CCO)CC4)c3oc2=O)cc1OC	none (no result: HCMV NEC inh)
CN1CCN(Cc2c(O)ccc3cc(-c4nc5ccccc5n4C)c(=O)oc23)CC1	none
Cc1oc(C2CCN(C(=O)NC3CCCCC3)CC2)nc1C(=O)N(C)C	none (no result: HCMV NEC inh)
CN(C)Cc1c(O)ccc2cc(-c3nc4ccccc4s3)c(=O)oc12	GIV-Gai inh -45
COc1cccc2cc(-c3nc4ccccc4s3)c(=O)oc12	none (no result: GIV-Gai inh)
CCc1ccc(NC(=O)C23CC4CC(CC(C4)C2)C3)cc1	none (no result: GIV-Gai inh)
Cc1ccc(-n2nnnc2C(C)(C)N)cc1	none (no result: HCMV NEC inh)
CCOc1ccc(-c2c(C#N)c(N)nc(SCC#N)c2C#N)cc1	none (no result: GIV-Gai inh)
COc1cc(-c2c(C#N)c(SCC#N)nc(N)c2C(=O)OC(C)C)cc(OC)c1OC	HCMV NEC inh 63 (no result: GIV-Gai inh)
COc1cc(/C=C2/OC(=S)N(C)C2=O)ccc1O	GIV-Gai inh -73
COc1ccc(/C=C2\OC(=S)N(C)C2=O)cc1	none (no result: HCMV NEC inh)
CN1CC(=O)NC(=O)C1	none (no result: GIV-Gai inh)
Cc1ccccc1NC(=O)N1CCN(c2cc(=O)n3nc(-c4ccccc4C)sc3n2)CC1	none
CC(C)c1ccc(S(=O)(=O)N2CCN(c3cc(=O)n4nc(-c5ccccc5)sc4n3)CC2)cc1	HCMV NEC inh 43
Cc1cccc(-c2nn3c(=O)cc(N4CCN(S(=O)(=O)c5ccccc5C)CC4)nc3s2)c1	none
Cc1ccccc1-c1nn2c(=O)cc(N3CCN(S(=O)(=O)Cc4ccccc4)CC3)nc2s1	none
CCOc1ccc(S(=O)(=O)N2CCN(c3cc(=O)n4nc(-c5ccccc5)sc4n3)CC2)cc1	HCMV NEC inh 45
CC(=O)N(C(C)=O)N1C(=O)c2cccc3c(N4CCOCC4)ccc(c23)C1=O	none
O=C1c2cccc3c(N4CCCCC4)ccc(c23)C(=O)N1c1ccccn1	GIV-Gai inh -29
O=c1cc(CN2CCCc3ccccc32)nc2sccn12	GIV-Gai inh -43
CCCc1nn2c(=O)cc(CN3CCCc4ccccc43)nc2s1	none (no result: HCMV NEC inh)
COc1ccc(-c2nnc(SCC(=O)c3ccc4c(c3)NC(=O)CO4)o2)cc1	none (no result: GIV-Gai inh)
COCCN(Cc1cc2cc(C)c(C)cc2nc1Cl)C(C)=O	none
CCOC(=O)C1=C(C)NC2=C(C(=O)CCC2)C1c1ccccc1 (configuration not stated)	none
CCOC(=O)C1(C#N)C(=O)C(C#N)=C2CCCCC2C1c1ccccc1 (configuration not stated)	GIV-Gai inh -31
CN1CCc2c(sc3c2C(=O)NC(c2ccc(OC(=O)c4ccccc4)cc2)N3)C1 (configuration not stated)	GIV-Gai inh 23
CN1CCc2c(sc3c2C(=O)NC(c2ccc(OC(=O)c4ccc(Cl)cc4)cc2)N3)C1 (configuration not stated)	none
N#CCN(CC#N)C(=O)c1sc2ccccc2c1Cl	none (no result: GIV-Gai inh)
CC(C)NC(=O)CCCCn1c(=O)c2ccccc2n(CC(=O)Nc2ccc(F)cc2)c1=O	none
Cn1c(=O)c(N2CCCCC2)c2c3c(cccc31)C(=O)c1ccccc1-2	GIV-Gai inh -32 (no result: HCMV NEC inh)
Cn1c(=O)c(Nc2ccccc2)c2c3c(cccc31)C(=O)c1ccccc1-2	none (no result: HCMV NEC inh)
CCN1CCc2c(sc(NC(=O)CCc3ccccc3)c2-c2nc3ccccc3s2)C1	none (no result: HCMV NEC inh)
CN1CCc2c(sc(NC(=O)CSc3ccccc3)c2-c2nc3ccccc3s2)C1	none (no result: HCMV NEC inh)
CC(=O)Nc1sc2c(c1-c1nc3ccccc3s1)CCN(Cc1ccccc1)C2	GIV-Gai inh -3.2 (no result: HCMV NEC inh)
CC(=O)N1CCc2c(sc(NC(=O)c3ccc(Br)s3)c2-c2nc3ccccc3s2)C1	none
CC(C)N1CCc2c(sc(NC(=O)c3ccc(F)cc3)c2-c2nc3ccccc3s2)C1	GIV-Gai inh -3.2 (no result: HCMV NEC inh)
CCC(=O)Nc1sc2c(c1-c1nc3ccccc3s1)CCN(C(C)=O)C2	none
CCOc1ccc(C(=O)Nc2sc3c(c2-c2nc4ccccc4s2)CCN(CC)C3)cc1	GIV-Gai inh -3.2 (no result: HCMV NEC inh)
CC(C)Oc1ccc(C(=O)Nc2sc3c(c2-c2nc4ccccc4s2)CCN(C)C3)cc1	GIV-Gai inh -3.2 (no result: HCMV NEC inh)
